System: rats
Experiment: Toxicity, intraperitoneal injection in rats

SMILES: O=C(CO)CO [dihydroxyacetone]
- deaths, repeated injection every 4 hours or every 3 hours (4.5 g/kg every 4 hours (first group) and every 3 hours (second group), 10 test animals): no deaths
- deaths, daily injection (7 g/kg intraperitoneally daily, five rats): None of the animals died
- signs noted when toxic doses were administered (toxic doses, rats): tremor and clonic spasms
